Source: patent US9006439B2, “Camptothecin derivatives having anti-tumor activity” (priority 2011, dated 2015)

System: U87, BX-PC3, HT-29, OV-3 and A549 cell lines
Test: MTT in vitro cytotoxicity, five cell lines together (mean / overall)
Conditions: A549, HT-29, OV-3, U87, BX-PC3
Procedure: In vitro cytotoxicity was measured with MTT. Cell suspension was prepared using cells in good condition and seeded at 200 μl/well on a 96 well plate before culturing for 24 hours in a temperature-controlled CO2 incubator. The test drug was added at 20 μl/well and cultured for 48 hours. MTT was added to the 96 well plate at 20 ul/well and allowed to react for 4 hours in the incubator. The supernatant was removed and DMSO was added at 20 μl/well. Cytotoxicity was determined by the absorbance measured by Enzyme-linked immunosorbent assay at a wavelength of 570 nm.

| Substance | in vitro activity / cytotoxicity (in words) |
| --- | --- |
| 9-t-butyloxyethyloxime-10-hydroxy-camptothecin [CPT2] | significant cytotoxicity |
| 9-phenylaminoethylhydrazone-10-[(4′-piperidinylpiperidinyl)carbonyloxy]-camptothecin [CPT6] | do not have significant activities in vitro |
| 9-t-butyloxyethyloxime-20-phenylalanine-carbonyloxy-camptothecin [CPT10] | do not have significant activities in vitro |
| 9-methoxyethyloxime-10-[(4′-piperidinylpiperidinyl) carbonyloxy]-camptothecin [CPT5] | do not have significant activities in vitro |
